From patent US20070203098A1, “Pten Inhibitors” (priority 2004, published 2007)
Read-outs that look alike come from different tables or passages of the source.

Amino acid sequences for entries named in this document (tags omitted). A change or cut given only in a name is not applied to a line headed by its entry.
UniProt P60484: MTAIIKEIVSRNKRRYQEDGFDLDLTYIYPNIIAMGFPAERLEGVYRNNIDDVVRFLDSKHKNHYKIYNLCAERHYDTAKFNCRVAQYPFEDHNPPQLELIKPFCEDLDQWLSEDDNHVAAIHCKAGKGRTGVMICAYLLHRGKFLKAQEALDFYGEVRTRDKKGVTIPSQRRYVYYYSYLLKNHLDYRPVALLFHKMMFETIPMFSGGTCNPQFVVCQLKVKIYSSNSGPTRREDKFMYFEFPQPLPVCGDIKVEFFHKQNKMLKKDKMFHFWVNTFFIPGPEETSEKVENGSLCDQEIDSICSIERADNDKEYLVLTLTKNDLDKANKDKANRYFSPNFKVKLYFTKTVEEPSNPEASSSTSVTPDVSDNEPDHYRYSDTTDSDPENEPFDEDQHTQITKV
UniProt P18031: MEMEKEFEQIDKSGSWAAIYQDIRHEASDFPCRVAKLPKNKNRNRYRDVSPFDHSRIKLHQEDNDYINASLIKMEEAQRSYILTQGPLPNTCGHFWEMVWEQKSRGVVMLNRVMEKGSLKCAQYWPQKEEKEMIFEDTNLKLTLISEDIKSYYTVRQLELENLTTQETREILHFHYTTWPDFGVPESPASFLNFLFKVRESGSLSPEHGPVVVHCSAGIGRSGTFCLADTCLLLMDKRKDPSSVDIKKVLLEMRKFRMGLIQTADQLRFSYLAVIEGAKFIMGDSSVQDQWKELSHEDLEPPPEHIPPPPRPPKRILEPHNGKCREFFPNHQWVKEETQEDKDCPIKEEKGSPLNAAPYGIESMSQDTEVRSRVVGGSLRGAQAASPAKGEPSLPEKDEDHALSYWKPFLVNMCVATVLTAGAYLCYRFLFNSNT

What was measured:
[1] = system: MEF PTEN null; assay: Migration Assay, MEF PTEN null; format: cell-based, mouse; conditions: Table 4
[2] = target: T1, PTEN (Homo sapiens, UniProt P60484); conditions: read-out: PTEN, ImperialCollege; substrate PtdIns(3, 4, 5)P3; cited from earlier work
[3] = system: MEF PTEN wt; assay: Migration Assay, MEF PTEN wt; format: cell-based, mouse; conditions: Table 4
[4] = target: T2, PTP1B (Homo sapiens, UniProt P18031); assay: PTP1B Inhibition Assay: IC50 Determinations; format: biochemical
[5] = system: mouse aortic ring; assay: In Vitro Aortic Ring Angiogenesis Assay; format: cell-based; conditions: 5 μM; 5 days
[6] = target: T1, PTEN; assay: PTEN Inhibition Assay: General Screening; format: biochemical; conditions: Table 10 vanadates
[7] = target: T2, PTP1B; conditions: read-out: PTP1B, ImperialCollege; substrate pNPP; cited from earlier work
[8] = target: T1, PTEN; assay: PTEN Inhibition Assay: IC50 Determinations; format: biochemical
[9] = read-out: PTP1B, Semafore Pharmaceuticals, substrate (Glu4Tyr[P])2, triplicate
[10] = read-out: PTP1B, Semafore Pharmaceuticals, substrate pNPP, triplicate
[11] = read-out: PTEN, Semafore Pharmaceuticals, substrate PtdIns(3, 4, 5)P3, Triplicate

Substance | migration number, Average ([1]; 125 uM) | migration number, Average ([1]; 250 uM) | IC50 [2] | migration number, Average ([3]; 125 uM) | migration number, Average ([3]; 250 uM) | IC50 ([4]; read-out: PTP1B IC50, Table 29) | IC50 [4, 9] | IC50 [4, 10] | Branch (% of control) [5] | Stem (% of control) [5] | % Inh. @ 250 uM in PTEN Assay [6] | IC50 [7] | IC50 ([8]; read-out: PTEN IC50, Table 29) | IC50 ([8]; read-out: PTEN Inhibition IC50, Table 1) | IC50 [8, 11]
Dipotassium Bisperoxo (5-hydroxypyridine-2- carboxyl)oxovanadate (V) | 40.50 | 43.70 | 0.014 µM | 13.50 | 13.90 | 0.045 µM | 0.045 µM | 0.0795 µM | 164-198 % of control | 164-201 % of control | 98-97.2% | 25.3 µM | 0.091 µM | 0.033 µM | 0.0911 µM
Dipotassium Bisperoxo (picolinato)oxovanadate (V) |  |  | 0.031 µM |  |  | 0.082 µM | 0.082 µM | 0.146 µM |  |  | 98.1% | 61 µM | 0.111 µM |  | 0.111 µM
Potassium Bisperoxo (1,10-phenanthroline) oxovanadate (V) |  |  | 0.038 µM |  |  | 0.084 µM | 0.084 µM | 0.0754 µM |  |  | 100.4% | 0.92 µM | 0.357 µM |  | 0.357 µM
Potassium Bisperoxo(bipyridine)oxovanadate (V) |  |  | 0.018 µM |  |  | 0.103 µM | 0.103 µM |  |  |  | 94.7% | 0.164 µM | 0.276 µM |  | 0.276 µM
